Data on one molecule can be found in ChEMBL document CHEMBL5365408, “Small molecule inhibitors of PCSK9. SAR investigations of head and amine groups” (Bioorg Med Chem Lett, 2023).

By UniProt entry, the sequences of proteins in these tests, tags left out. Residues count along the entry.
UniProt Q8NBP7, 31-152 limits assumed: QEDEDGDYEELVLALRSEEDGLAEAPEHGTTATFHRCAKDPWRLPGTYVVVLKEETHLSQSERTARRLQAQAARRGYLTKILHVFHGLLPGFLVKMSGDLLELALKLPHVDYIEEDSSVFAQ
UniProt Q8NBP7, 153-692 limits assumed: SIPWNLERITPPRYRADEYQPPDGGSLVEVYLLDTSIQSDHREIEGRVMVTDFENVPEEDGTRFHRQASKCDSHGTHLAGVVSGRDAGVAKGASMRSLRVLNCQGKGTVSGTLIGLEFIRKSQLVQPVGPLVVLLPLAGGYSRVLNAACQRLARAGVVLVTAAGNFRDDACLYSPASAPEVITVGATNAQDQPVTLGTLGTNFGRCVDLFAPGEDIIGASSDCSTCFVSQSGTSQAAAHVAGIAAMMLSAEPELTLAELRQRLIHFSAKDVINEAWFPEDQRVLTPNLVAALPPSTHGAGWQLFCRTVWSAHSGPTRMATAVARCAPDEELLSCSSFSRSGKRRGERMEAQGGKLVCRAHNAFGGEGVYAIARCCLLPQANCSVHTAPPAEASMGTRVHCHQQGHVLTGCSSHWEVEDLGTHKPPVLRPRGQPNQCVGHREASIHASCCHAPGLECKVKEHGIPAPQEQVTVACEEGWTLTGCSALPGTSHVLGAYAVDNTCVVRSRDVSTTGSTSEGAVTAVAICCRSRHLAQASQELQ

This assay deals with Proprotein convertase subtilisin/kexin type 9 (Homo sapiens, UniProt Q8NBP7). The assay can be described thus: Inhibition of full length human PCSK9 expressed in human Huh-7 cells by ELISA analysis. The assay is classed as cell-based. For orientation: An ELISA detects its analyte on a solid surface through an enzyme-linked reagent.

For orientation: IC50 means the concentration that gives 50% inhibition. Read a low IC50 as higher potency. With `Cc1cnc2c(c1)nnn2-c1ccc(C(=O)N(c2ncccc2Cl)[C@@H]2CCCNC2)nc1`, the IC50 is 1460 nM.
